Values quoted from earlier work, collected in PMC10819888, “Benzimidazole-Based Derivatives as Apoptotic Antiproliferative Agents: Design, Synthesis, Docking, and Mechanistic Studies” (Molecules, 2024).

Protein sequences, listed by entry. Tags and fused reporters are not part of them. Residues count along the entry.
UniProt P00533, 669-1210: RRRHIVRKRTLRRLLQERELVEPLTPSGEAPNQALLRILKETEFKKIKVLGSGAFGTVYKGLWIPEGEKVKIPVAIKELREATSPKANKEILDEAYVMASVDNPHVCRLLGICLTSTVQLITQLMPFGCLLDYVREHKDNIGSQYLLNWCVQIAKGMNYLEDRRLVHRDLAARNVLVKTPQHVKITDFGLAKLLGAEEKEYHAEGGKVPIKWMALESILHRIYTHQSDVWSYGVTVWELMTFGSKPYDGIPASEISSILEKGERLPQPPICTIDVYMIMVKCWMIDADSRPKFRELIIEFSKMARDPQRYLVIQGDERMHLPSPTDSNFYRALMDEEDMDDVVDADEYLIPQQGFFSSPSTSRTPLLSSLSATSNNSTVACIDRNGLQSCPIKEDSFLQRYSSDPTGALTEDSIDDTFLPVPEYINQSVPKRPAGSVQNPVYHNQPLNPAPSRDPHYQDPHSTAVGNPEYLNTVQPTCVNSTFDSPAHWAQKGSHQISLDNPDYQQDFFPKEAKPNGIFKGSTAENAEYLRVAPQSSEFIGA

Target: EGFR (Homo sapiens, UniProt P00533)
Set-up: CD, amino acids 645–1186); His6 (N); made in house; host or cells: Sf-9 insect cells (baculovirus; pBlueBacHis2B / pFASTBacHTc; method as in PMID 31954624, PMID 29285266, PMID 27433829, doi:10.1200/JCO.2018.36.15_suppl.9094, PMID 26825170
Settings: Figure 1; read-out: IC50 EGFR inhibitor; cited from earlier work

Q: For `Cc1cc(C(=O)Nc2nc3cccc(Cl)c3n2[C@@H]2CCCCN(C(=O)/C=C/CN(C)C)C2)ccn1` [Nazartinib], which IC50 is on record?
A: 31 nM
